Measurements from patent US20240158408A1, “Nitrogen-Containing Heterocyclic Compound, Pharmaceutical Compositions thereof and Use thereof” (280 Bio, Inc., priority 2022, published 2024).

Sequences of proteins named here, by UniProt entry; tags and fusion partners are left off. A change or cut given only in a name is not applied to a line headed by its entry.
UniProt P42336, whole entry: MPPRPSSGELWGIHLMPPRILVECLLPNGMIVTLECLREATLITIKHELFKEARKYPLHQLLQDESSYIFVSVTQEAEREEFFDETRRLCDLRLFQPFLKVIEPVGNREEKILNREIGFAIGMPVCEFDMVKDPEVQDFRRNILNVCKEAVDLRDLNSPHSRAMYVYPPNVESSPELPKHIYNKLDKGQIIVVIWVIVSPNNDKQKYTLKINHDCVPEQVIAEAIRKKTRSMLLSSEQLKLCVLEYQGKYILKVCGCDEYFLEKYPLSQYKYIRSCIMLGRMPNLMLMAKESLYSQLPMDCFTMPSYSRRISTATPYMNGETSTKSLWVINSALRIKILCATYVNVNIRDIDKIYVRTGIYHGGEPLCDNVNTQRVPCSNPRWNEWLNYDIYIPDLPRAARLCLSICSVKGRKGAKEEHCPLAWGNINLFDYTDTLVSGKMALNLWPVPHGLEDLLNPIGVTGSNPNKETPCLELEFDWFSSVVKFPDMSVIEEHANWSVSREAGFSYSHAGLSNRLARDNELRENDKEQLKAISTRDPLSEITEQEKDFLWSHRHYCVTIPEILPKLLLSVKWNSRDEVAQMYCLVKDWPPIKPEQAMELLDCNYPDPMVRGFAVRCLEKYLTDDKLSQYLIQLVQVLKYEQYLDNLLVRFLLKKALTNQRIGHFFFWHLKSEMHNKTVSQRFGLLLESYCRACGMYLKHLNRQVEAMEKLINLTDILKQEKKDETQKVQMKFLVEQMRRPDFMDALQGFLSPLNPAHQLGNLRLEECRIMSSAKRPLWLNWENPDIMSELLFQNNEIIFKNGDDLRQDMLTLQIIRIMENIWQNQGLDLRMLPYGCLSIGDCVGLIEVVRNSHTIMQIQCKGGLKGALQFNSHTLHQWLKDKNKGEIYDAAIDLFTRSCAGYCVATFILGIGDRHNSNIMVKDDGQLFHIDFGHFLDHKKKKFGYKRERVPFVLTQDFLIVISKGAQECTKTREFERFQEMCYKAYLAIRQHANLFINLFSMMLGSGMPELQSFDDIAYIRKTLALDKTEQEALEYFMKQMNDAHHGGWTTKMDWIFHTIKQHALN
UniProt P42336, whole entry H1047R: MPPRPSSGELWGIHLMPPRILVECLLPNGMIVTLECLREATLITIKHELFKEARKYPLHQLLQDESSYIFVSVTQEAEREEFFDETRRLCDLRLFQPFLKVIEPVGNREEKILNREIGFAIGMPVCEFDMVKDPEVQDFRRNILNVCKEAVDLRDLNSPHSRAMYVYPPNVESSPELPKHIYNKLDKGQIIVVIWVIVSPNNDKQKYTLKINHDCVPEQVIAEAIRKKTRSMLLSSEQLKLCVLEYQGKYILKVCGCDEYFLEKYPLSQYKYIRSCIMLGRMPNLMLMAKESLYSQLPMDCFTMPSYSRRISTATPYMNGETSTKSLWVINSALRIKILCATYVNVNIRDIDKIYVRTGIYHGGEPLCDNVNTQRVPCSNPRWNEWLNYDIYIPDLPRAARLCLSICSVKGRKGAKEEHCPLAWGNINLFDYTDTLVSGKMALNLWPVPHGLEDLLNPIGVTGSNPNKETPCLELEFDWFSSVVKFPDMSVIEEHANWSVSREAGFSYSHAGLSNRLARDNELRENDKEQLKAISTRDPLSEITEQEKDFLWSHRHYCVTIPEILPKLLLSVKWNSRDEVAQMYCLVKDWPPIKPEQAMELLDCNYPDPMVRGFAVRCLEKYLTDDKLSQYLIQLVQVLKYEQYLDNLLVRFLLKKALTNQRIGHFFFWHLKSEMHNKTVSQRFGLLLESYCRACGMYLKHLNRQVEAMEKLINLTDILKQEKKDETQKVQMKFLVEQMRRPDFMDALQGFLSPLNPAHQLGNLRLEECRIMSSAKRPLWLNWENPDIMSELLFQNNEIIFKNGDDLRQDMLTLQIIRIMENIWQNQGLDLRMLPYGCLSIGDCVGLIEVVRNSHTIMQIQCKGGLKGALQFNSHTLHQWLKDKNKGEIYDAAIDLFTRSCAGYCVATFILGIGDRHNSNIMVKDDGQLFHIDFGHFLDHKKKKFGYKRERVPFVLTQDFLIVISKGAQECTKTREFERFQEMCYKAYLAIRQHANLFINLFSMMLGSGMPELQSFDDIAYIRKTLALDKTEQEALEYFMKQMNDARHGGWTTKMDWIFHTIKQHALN
UniProt P27986, whole entry partner: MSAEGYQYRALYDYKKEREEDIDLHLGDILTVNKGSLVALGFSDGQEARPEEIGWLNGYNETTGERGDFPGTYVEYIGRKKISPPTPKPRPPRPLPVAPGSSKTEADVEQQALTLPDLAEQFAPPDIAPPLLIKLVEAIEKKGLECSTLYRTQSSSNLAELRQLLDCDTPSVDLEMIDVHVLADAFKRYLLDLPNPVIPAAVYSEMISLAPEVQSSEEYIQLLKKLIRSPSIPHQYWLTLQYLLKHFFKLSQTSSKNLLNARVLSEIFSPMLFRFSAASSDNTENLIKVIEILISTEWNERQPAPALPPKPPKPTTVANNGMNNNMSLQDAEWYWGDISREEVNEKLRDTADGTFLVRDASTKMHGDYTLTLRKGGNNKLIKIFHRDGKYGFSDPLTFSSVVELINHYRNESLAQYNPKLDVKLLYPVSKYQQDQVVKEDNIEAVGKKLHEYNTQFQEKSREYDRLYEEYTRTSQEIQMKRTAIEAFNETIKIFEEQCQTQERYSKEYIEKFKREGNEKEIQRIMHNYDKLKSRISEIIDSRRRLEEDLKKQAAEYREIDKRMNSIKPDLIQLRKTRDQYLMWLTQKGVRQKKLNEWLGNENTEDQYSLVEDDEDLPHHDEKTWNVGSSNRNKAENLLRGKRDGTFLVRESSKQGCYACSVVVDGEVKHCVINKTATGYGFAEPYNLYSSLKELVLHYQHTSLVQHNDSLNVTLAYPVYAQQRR

Assays:
PI3Kα = PI3Kα (Homo sapiens (Human), UniProt P42336); experiment: ADP-Glo Kinase Assay, PI3Kα enzyme activity inhibition; conditions: ATP 25 μM, PIP2 50 μg/mL, 1 hour at room temperature
PI3Kα H1047R = PI3Kα H1047R (Homo sapiens (Human), UniProt P42336, H1047R); experiment: ADP-Glo Kinase Assay, PI3Kα H1047R enzyme activity inhibition; conditions: read-out: PI3KαH1047RIC50, ATP 25 μM, PIP2 50 μg/mL, 1 hour at room temperature

SMILES | PI3Kaα IC50 (PI3Kα) | IC50 (PI3Kα H1047R)
O=C(Nc1cc(-c2cc(C(F)(F)F)n[nH]2)c2c3c1C(c1cc(F)ccc1Cl)NC(=O)N3CC2)c1cc(F)cc(C(F)(F)F)c1 (single isomer, unassigned) [YL065-P2] | ++ (++ represents 250 nM<IC50<=10 μM) | 
O=C(Nc1cc(-c2cc(C(F)(F)F)n[nH]2)c2c3c1C(c1cc(F)ccc1Cl)NC(=O)N3CC2)c1cc(F)cc(C(F)(F)F)c1 (single isomer, unassigned) [YL065] | ++ (++ represents 250 nM<IC50<=10 μM) | 
O=C1NC(c2cc(F)ccc2Cl)c2c(Nc3nccc4c(C(F)(F)F)cc(F)cc34)cc(-c3c[nH]nc3F)c3c2N1CC3 (stereo not shown) | +++ (+++ represents IC50>10 μM) | 
CC(C)Nc1cc(NC(=O)c2cc(F)cc(C(F)(F)F)c2)c2c3c1CCN3C(=O)NC2c1cc(F)ccc1Cl (stereo not shown) | ++ (++ represents 250 nM<IC50<=10 μM) | 
N#Cc1nc(N)ccc1-c1cc(NC(=O)c2cc(F)cc(C(F)(F)F)c2)c2c3c1CCN3C(=O)NC2c1cc(F)ccc1Cl (stereo not shown) | +++ (+++ represents IC50>10 μM) | < 0.25 µM
O=C(Nc1cc(-c2cc(C(F)(F)F)n[nH]2)c2c3c1C(c1cc(F)ccc1Cl)NC(=O)N3CC2)c1cc(F)cc(Cl)c1 (stereo not shown) | ++ (++ represents 250 nM<IC50<=10 μM) | 
Nc1cc(-c2cc(NC(=O)c3cc(F)cc(C(F)(F)F)c3)c3c4c2CCN4C(=O)NC3c2cc(F)ccc2Cl)[nH]n1 (single isomer, unassigned) [YL053-P2] | ++ (++ represents 250 nM<IC50<=10 μM) | 
O=C(Nc1cc(C(=O)O)c2c3c1C(c1cc(F)ccc1Cl)NC(=O)N3CC2)c1cc(F)cc(C(F)(F)F)c1 (stereo not shown) | +++ (+++ represents IC50>10 μM) | 
N#Cc1c(-c2cc(NC(=O)c3cc(F)cc(C(F)(F)F)c3)c3c4c2CCN4C(=O)NC3c2cc(F)ccc2Cl)ccc2nccn12 (stereo not shown) | +++ (+++ represents IC50>10 μM) | 
O=C(Nc1cc(Br)c2c3c1C(c1cccc4ccccc14)NC(=O)N3CC2)c1cc(F)cc(C(F)(F)F)c1 (stereo not shown) | +++ (+++ represents IC50>10 μM) | 
O=C1NC(c2cc(F)ccc2Cl)c2c(Nc3nccc4c(C(F)(F)F)cc(F)cc34)cc(Nc3c[nH]nc3F)c3c2N1CC3 (stereo not shown) | +++ (+++ represents IC50>10 μM) | 
O=C(Nc1cc(-c2c[nH]nc2F)c2c3c1C(c1cc(F)ccc1Cl)NC(=O)N3CC2)c1cc(F)cc(C(F)(F)F)c1 (stereo not shown) | ++ (++ represents 250 nM<IC50<=10 μM) | 
O=C(Nc1cc(-c2cc(C(F)(F)F)n[nH]2)c2c3c1C(c1cc(F)ccc1Cl)NC(=O)N3CC2)c1cc(F)cc(C(F)(F)F)c1 (single isomer, unassigned) [YL065-P1] | +++ (+++ represents IC50>10 μM) | 
O=C(Nc1ccc2ccn3c2c1C(c1cc(F)ccc1Cl)NC3=O)c1cc(F)cc(C(F)(F)F)c1 (stereo not shown) | ++ (++ represents 250 nM<IC50<=10 μM) | 
N#Cc1c(N)n[nH]c1-c1cc(NC(=O)c2cc(F)cc(C(F)(F)F)c2)c2c3c1CCN3C(=O)NC2c1cc(F)ccc1Cl (stereo not shown) | +++ (+++ represents IC50>10 μM) | < 0.25 µM
Cn1cc(Nc2cc(NC(=O)c3cc(F)cc(C(F)(F)F)c3)c3c4c2CCN4C(=O)NC3c2cc(F)ccc2Cl)cn1 (stereo not shown) | ++ (++ represents 250 nM<IC50<=10 μM) | 
O=C(Nc1cc(-c2cccc3nncn23)c2c3c1C(c1cc(F)ccc1Cl)NC(=O)N3CC2)c1cc(F)cc(C(F)(F)F)c1 (stereo not shown) | ++ (++ represents 250 nM<IC50<=10 μM) | 
Cn1nc(C(F)(F)F)cc1Nc1cc(NC(=O)c2cc(F)cc(C(F)(F)F)c2)c2c3c1CCN3C(=O)NC2c1cc(F)ccc1Cl (stereo not shown) | ++ (++ represents 250 nM<IC50<=10 μM) | 
O=C(Nc1cc(-c2cnn(C3CCOCC3)c2)c2c3c1C(c1cc(F)ccc1Cl)NC(=O)N3CC2)c1cc(F)cc(C(F)(F)F)c1 (stereo not shown) | ++ (++ represents 250 nM<IC50<=10 μM) | 
Nc1cc(-c2cc(NC(=O)c3cc(F)cc(C(F)(F)F)c3)c3c4c2CCN4C(=O)NC3c2cc(F)ccc2Cl)[nH]n1 (single isomer, unassigned) [YL053-P1] | +++ (+++ represents IC50>10 μM) | 

SMILES | PI3Kaα IC50 (PI3Kα) | IC50 (PI3Kα H1047R)
Cc1c(-c2cc(NC(=O)c3cc(F)cc(C(F)(F)F)c3)c3c4c2CCN4C(=O)NC3c2cc(F)ccc2Cl)ccc2ncnn12 (stereo not shown) | +++ (+++ represents IC50>10 μM) | < 0.25 µM
O=C(CO)Nc1cc(NC(=O)c2cc(F)cc(C(F)(F)F)c2)c2c3c1CCN3C(=O)NC2c1cc(F)ccc1Cl (stereo not shown) | +++ (+++ represents IC50>10 μM) | 
O=C(Nc1ccc2c3c1C(c1cc(F)ccc1Cl)NC(=O)N3CCO2)c1cc(F)cc(C(F)(F)F)c1 (stereo not shown) | +++ (+++ represents IC50>10 μM) | 
O=C1NC(c2cc(F)ccc2Cl)c2c(Nc3nccc4c(C(F)(F)F)cc(F)cc34)cc(Nc3cc(C(F)(F)F)n[nH]3)c3c2N1CC3 (stereo not shown) | +++ (+++ represents IC50>10 μM) | 
C[C@H](N)C(=O)Nc1cc(NC(=O)c2cc(F)cc(C(F)(F)F)c2)c2c3c1CCN3C(=O)NC2c1cc(F)ccc1Cl (stereo partly shown) | +++ (+++ represents IC50>10 μM) | 
O=C(Nc1ccc2nn(CC(F)(F)F)c3c2c1C(c1cc(Cl)ccc1Cl)NC3=O)c1cc(F)cc(C(F)(F)F)c1 (stereo not shown) | +++ (+++ represents IC50>10 μM) | < 0.25 µM
O=C(Nc1cc(NC(=O)[C@@H]2CCCN2)c2c3c1C(c1cc(F)ccc1Cl)NC(=O)N3CC2)c1cc(F)cc(C(F)(F)F)c1 (stereo partly shown) | ++ (++ represents 250 nM<IC50<=10 μM) | 
O=C(Nc1cc(N2CCOCC2)c2c3c1C(c1cc(F)ccc1Cl)NC(=O)N3CC2)c1cc(F)cc(C(F)(F)F)c1 (stereo not shown) | +++ (+++ represents IC50>10 μM) | 0.25 to 10 µM
O=C(Nc1cc(-c2cn[nH]c2)c2c3c1C(c1cc(F)ccc1Cl)NC(=O)N3CC2)c1cc(F)cc(C(F)(F)F)c1 (stereo not shown) | ++ (++ represents 250 nM<IC50<=10 μM) | 
O=C(Nc1cc(-c2cnc3[nH]cnc3c2)c2c3c1C(c1cc(F)ccc1Cl)NC(=O)N3CC2)c1cc(F)cc(C(F)(F)F)c1 (stereo not shown) | +++ (+++ represents IC50>10 μM) | 
Nc1c(-c2cc(NC(=O)c3cc(F)cc(C(F)(F)F)c3)c3c4c2CCN4C(=O)NC3c2cc(F)ccc2Cl)ccc2ncnn12 (stereo not shown) | +++ (+++ represents IC50>10 μM) | 
O=C(Nc1cc(Br)c2c3c1C(c1cc(F)ccc1Cl)NC(=O)N3CC2)c1cc(F)cc(C(F)(F)F)c1 (stereo not shown) | ++ (++ represents 250 nM<IC50<=10 μM) | 
N#Cc1nc(N)ccc1-c1cc(NC(=O)c2cc(F)cc(C(F)(F)F)c2)c2c3c1CCN3C(=O)NC2c1cc(Cl)ccc1Cl (single isomer, unassigned) [YL114-P2] | +++ (+++ represents IC50>10 μM) | < 0.25 µM
NC(=O)c1cc(NC(=O)c2cc(F)cc(C(F)(F)F)c2)c2c3c1CCN3C(=O)NC2c1cc(F)ccc1Cl (stereo not shown) | ++ (++ represents 250 nM<IC50<=10 μM) | 
Cc1ccccc1C1NC(=O)N2CCc3ccc(NC(=O)c4csc5ccccc45)c1c32 (stereo not shown) | ++ (++ represents 250 nM<IC50<=10 μM) | 
O=C(Nc1ccc2c3c1C(c1cc(F)ccc1Cl)NC(=O)N3CCC2)c1cc(F)cc(C(F)(F)F)c1 (stereo not shown) | +++ (+++ represents IC50>10 μM) | 
O=C(Nc1cc(-c2ccc3ncnn3c2Cl)c2c3c1C(c1cc(F)ccc1Cl)NC(=O)N3CC2)c1cc(F)cc(C(F)(F)F)c1 (stereo not shown) | ++ (++ represents 250 nM<IC50<=10 μM) | 
N#Cc1nc(N)ccc1-c1cc(NC(=O)c2cc(F)cc(C(F)(F)F)c2)c2c3c1CCN3C(=O)NC2c1cc(Cl)ccc1Cl (single isomer, unassigned) [YL114-P1] |  | > 10 µM
O=C(Nc1ccc2c3c1C(c1cc(F)ccc1Cl)NC(=O)N3CC2)c1cc(F)cc(C(F)(F)F)c1 (stereo not shown) | ++ (++ represents 250 nM<IC50<=10 μM) | 
NCC(=O)Nc1cc(NC(=O)c2cc(F)cc(C(F)(F)F)c2)c2c3c1CCN3C(=O)NC2c1cc(F)ccc1Cl (stereo not shown) | +++ (+++ represents IC50>10 μM) | 
